Values quoted from earlier work in PMC11881035, “^68Ga-Labeled Glycopeptides as Effective Tools for Liver Function Imaging” (Molecular Pharmaceutics, 2025).

Legend:
[1] = in vivo; cited from earlier work
[2] = design: method as in PMID 38750246; conditions: cited from earlier work

Row | Substance | time of rapid tracer accumulation in liver (time-activity curves) [1] [min] | liver uptake ([2]; 30 min p.i. ref 21) [% ID/g] | intestinal activity ([2]; 60 min p.i. ref 21) [% ID/g]
1 | [^68Ga]Ga-NOTA-GSA: 68Ga-labeled NOTA conjugate of galactosylated human serum albumin for PET | ≤ 5 |  | 
2 | [^99mTc]Tc-GSA: galactosylated human serum albumin-based radiopharmaceutical targeting the ASGR, used for SPECT |  | 51.3 ± 2.8 | 9.8 ± 1.9
